Key:
Assay in all cases: Kinase inhibitory activity, isotopic labeling (γ-33P-ATP)
Format in all cases: biochemical
EGFR L858R mutant type = EGFR L858R mutant type (Homo sapiens (Human), UniProt P00533, L858R)
Description: (§1) The object of this assay was to test the inventive compounds for the kinase inhibitory activity in vitro. In this assay, an isotopic labeling method was used to label the γ phosphate group on ATP. […] Staurosporine was used as a reference molecule (or referred to as a positive control). […] The IC50 value can be obtained by the calculation of the inhibitory rates at a series of different concentrations of the tested compounds.
(§2) To a reaction tube were successively added the buffer solution (8 mM MOPS, pH 7.0, 0.2 mM EDTA, 10 mM MnCl2), the kinase to be tested (5-10 mU) (EGFR/ALK/BTK/c-KIT/c-SRC/MET/PDGFRα/VEGFR2), the substrate for the kinase to be tested (a reference material), 10 mM of the solution of magnesium acetate and γ-^33 P-ATP, and different concentrations of the tested compounds. […] The reaction was terminated with […] of the 3% phosphate buffer solution. 10 μL of the reaction liquid was titrated on the Filtermat A membrane. The membrane was washed with 75 mM of the phosphate solution thrice (5 minutes each time), and then with methanol once, and finally dried. The membrane was subjected to a scintillation counting. The value of the scintillation counting reflected the phosphorylation level of the substrate and therefore could characterize the inhibition of the kinase activity.

Protein sequences, listed by entry. Tags and fused reporters are not part of them. Residues count along the entry.
UniProt P00533, 25-1210 L858R: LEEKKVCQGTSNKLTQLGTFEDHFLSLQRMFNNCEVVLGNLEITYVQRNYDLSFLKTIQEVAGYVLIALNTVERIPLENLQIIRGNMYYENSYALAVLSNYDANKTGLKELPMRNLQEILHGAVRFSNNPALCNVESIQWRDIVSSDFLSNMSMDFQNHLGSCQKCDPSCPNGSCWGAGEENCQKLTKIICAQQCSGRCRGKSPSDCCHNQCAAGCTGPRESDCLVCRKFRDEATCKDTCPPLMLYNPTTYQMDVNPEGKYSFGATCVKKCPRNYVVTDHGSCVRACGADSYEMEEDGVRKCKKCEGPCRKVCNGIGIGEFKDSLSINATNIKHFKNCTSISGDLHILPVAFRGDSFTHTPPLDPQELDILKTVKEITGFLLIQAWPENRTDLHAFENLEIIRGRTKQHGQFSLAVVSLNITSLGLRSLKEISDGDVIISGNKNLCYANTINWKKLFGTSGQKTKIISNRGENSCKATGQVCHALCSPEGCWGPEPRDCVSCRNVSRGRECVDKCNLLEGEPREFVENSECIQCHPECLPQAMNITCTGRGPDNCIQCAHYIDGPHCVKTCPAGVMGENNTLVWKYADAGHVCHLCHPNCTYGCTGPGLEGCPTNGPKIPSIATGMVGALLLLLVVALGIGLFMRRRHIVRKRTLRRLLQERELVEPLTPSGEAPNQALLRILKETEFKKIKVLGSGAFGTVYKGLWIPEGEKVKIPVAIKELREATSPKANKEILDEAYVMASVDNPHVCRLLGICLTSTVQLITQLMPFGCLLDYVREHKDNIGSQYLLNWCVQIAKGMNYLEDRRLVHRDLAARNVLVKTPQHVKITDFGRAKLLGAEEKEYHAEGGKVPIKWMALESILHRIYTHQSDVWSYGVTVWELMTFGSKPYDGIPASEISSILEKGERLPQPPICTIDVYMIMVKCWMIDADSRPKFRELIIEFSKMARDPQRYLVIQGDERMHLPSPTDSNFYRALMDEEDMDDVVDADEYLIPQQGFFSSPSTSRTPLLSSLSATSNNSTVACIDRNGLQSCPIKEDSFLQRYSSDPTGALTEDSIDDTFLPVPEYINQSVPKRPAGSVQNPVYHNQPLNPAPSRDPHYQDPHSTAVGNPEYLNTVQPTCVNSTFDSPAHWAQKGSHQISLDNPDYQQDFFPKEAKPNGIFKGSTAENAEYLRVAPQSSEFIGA
UniProt P00533, 25-1210 T790M/L858R: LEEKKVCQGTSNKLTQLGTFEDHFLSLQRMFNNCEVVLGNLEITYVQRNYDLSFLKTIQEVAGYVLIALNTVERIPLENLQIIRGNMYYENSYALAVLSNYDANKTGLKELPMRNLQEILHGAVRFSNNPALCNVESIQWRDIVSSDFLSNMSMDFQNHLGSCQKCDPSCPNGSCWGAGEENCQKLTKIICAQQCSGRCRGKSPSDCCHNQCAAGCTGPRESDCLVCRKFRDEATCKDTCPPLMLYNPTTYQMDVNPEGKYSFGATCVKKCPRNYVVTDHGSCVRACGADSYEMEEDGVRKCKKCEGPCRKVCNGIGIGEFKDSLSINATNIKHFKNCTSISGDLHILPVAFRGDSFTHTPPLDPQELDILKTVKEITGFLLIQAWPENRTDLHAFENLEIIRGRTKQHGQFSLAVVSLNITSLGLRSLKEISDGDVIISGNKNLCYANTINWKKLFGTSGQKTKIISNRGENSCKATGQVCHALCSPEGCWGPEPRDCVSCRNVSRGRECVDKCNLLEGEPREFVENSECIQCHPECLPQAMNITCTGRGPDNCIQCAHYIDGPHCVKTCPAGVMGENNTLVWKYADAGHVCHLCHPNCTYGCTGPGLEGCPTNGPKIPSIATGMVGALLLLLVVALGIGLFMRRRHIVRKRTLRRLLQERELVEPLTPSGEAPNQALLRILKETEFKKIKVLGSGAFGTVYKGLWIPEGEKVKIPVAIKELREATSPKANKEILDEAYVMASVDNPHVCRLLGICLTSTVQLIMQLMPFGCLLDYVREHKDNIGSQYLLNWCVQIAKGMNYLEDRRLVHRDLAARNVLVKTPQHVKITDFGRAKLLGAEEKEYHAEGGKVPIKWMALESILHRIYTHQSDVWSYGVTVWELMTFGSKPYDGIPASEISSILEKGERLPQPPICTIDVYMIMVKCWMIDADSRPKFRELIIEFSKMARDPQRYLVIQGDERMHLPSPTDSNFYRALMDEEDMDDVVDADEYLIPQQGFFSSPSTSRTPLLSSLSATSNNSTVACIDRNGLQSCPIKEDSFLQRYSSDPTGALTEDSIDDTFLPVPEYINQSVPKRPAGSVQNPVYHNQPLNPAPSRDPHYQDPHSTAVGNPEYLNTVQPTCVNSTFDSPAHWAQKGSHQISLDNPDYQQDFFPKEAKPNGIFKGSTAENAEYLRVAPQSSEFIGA
UniProt P00533, 25-1210: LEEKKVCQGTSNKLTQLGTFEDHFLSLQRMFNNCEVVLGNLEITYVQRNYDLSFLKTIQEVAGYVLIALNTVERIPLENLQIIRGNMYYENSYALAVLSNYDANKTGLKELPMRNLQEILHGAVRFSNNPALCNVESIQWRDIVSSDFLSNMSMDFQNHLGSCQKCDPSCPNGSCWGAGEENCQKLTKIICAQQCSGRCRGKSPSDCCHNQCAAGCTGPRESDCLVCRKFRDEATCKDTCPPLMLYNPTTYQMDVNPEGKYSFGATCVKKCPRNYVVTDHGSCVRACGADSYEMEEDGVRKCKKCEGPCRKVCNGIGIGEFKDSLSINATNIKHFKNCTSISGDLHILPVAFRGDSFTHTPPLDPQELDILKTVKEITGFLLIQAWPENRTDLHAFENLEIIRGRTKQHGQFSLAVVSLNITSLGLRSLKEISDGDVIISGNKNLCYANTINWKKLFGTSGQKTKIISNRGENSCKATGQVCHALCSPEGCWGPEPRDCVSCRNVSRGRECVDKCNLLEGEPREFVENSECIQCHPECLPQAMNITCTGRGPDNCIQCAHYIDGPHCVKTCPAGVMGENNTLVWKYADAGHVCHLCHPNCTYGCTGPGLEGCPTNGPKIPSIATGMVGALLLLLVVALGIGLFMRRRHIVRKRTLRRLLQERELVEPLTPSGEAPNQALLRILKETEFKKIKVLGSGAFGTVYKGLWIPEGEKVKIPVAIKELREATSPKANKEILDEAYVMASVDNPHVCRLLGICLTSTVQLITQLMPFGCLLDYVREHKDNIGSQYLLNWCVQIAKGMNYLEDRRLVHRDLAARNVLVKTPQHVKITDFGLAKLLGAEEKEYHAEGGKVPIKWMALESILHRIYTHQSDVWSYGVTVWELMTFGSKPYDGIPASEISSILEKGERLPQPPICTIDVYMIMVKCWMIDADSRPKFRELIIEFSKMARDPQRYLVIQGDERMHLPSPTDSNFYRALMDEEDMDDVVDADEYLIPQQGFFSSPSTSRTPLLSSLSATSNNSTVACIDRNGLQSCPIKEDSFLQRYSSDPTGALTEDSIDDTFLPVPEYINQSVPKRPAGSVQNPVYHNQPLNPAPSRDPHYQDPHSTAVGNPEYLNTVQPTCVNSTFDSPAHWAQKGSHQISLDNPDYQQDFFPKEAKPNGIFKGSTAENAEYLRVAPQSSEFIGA

[1] = target: EGFR L858R/T790M double mutant type (Homo sapiens (Human), UniProt P00533, L858R/T790M); conditions: ATP 45 μM (Km)
Description: as §1, §2

EGFR wild type = EGFR wild type (Homo sapiens (Human), UniProt P00533)
Description: as §1, §2

COc1cc(C(=O)NN2CCN(C)CC2)ccc1Nc1ncc2nc(Nc3ccccc3)n(C(C)C)c2n1 [Compound 8-7, 3-methoxy-4-(9-isopropyl-8-phenylamino-9H-purin-2-ylamino)-N-(4-methylpiperazin-1-yl)benzamide]
IC50 (EGFR L858R mutant type): 0.001 µM
IC50 [1]: 0.128 µM
IC50 (EGFR wild type): 0.007 µM
